Test results taken from patent US20020061836A1.

How the values were obtained:
[1] = molecular target: T1, human SXR ligand binding domain (Homo sapiens, UniProt O75469); experiment: Gal-L-SXR (Gal-SXR) Gal4 reporter transient transfection assay in CV-1 cells; settings: 2.5 μM hyperforin, 10 μM rifampicin, 3 μM ritonavir, 10 μM PCN
T1 sequence (O75469 107-434 limits assumed): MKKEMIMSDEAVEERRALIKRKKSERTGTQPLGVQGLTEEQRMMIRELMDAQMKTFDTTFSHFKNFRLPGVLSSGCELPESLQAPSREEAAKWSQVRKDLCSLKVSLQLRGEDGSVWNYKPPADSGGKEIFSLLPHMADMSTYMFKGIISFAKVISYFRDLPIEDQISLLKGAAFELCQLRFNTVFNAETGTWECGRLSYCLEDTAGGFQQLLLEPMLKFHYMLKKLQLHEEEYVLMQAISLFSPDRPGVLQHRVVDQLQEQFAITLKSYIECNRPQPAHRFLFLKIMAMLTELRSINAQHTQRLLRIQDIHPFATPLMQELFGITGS

[2] = system: CYP2C8 mRNA; settings: hepatocytes
[3] = system: MDR1 mRNA; experiment: Northern analysis of MDR1 expression in human LS180 cells

hyperforin
activation of Gal-SXR [1]: activated
CYP2C8 mRNA expression [2]: strongly activated
MDR1 mRNA expression [3]: very strongly induced
